Data published in ChEMBL document CHEMBL2401649, “Cyclic enkephalins with a diversely substituted guanidine bridge or a thiourea bridge: synthesis, biological and structural evaluations” (J Med Chem, 2013).
“And” between values parts separate entries of the source, which are not always exact repeats. Identical values can stand only once.

Chains of the proteins cited; added tags and fusions are not shown.
UniProt P97266, whole entry, looked up: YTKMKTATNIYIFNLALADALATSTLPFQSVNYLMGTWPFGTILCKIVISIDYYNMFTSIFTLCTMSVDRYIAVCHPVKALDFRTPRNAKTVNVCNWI
UniProt P32300, whole entry, looked up: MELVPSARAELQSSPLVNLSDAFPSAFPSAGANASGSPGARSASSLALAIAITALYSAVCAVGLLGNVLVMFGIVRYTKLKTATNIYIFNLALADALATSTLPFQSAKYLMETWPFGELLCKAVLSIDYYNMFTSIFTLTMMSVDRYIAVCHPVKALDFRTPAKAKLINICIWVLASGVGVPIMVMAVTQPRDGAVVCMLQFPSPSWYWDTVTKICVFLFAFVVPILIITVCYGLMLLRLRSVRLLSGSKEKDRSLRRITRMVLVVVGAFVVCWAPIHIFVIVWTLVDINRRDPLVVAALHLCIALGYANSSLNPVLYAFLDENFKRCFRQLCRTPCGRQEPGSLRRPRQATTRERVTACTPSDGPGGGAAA

What was measured:
[1] = molecular target: Mu-type opioid receptor (Cavia porcellus) (UniProt P97266); assay: Agonist activity at mu opioid receptor in guinea pig ileum relative to leu-enkephalin
Rattus norvegicus = organism: Rattus norvegicus; assay: Selectivity ratio of Ki for delta opioid receptor in Wistar rat brain membranes to Ki for mu opioid receptor in Wistar rat brain membranes; format: cell membranes; conditions: Membrane
[2] = molecular target: Delta-type opioid receptor (Mus musculus) (UniProt P32300); assay: Agonist activity at delta opioid receptor in mouse vas deferens relative to leu-enkephalin

Q: `NC(=O)[C@@H]1C/N=C(/N2CCCCC2)NC[C@@H](NC(=O)[C@@H](N)Cc2ccc(O)cc2)C(=O)NCC(=O)N[C@@H](Cc2ccccc2)C(=O)N1` was tested. Which fold change (FC) [1] did it give?
A: 0.618

Q: What about the Ratio Ki (Rattus norvegicus) of the same compound?
A: 5.5 and 10.5 and 10.2

Q: And the fold change (FC) [2]?
A: 0.0373

Q: For `CN/C1=N/C[C@@H](C(N)=O)NC(=O)[C@H](Cc2ccccc2)NC(=O)CNC(=O)[C@H](NC(=O)[C@@H](N)Cc2ccc(O)cc2)CN1`, which fold change (FC) [1] is on record?
A: 5.89

Q: And the fold change (FC) [2]?
A: 0.149

Q: For `CS/C1=N/C[C@@H](C(N)=O)NC(=O)[C@H](Cc2ccccc2)NC(=O)CNC(=O)[C@H](NC(=O)[C@@H](N)Cc2ccc(O)cc2)CN1`, which fold change (FC) [1] is on record?
A: 13.8

Q: And the Ratio Ki (Rattus norvegicus)?
A: 2.6

Q: And the fold change (FC) [2]?
A: 0.55

Q: What does the source list for `NC(=O)[C@@H]1C/N=C(/N)NC[C@@H](NC(=O)[C@@H](N)Cc2ccc(O)cc2)C(=O)NCC(=O)N[C@@H](Cc2ccccc2)C(=O)N1`?
A: fold change (FC) [1]: 1.01; Ratio Ki (Rattus norvegicus): 38.9; fold change (FC) [2]: 0.0329

Q: With `NC(=O)[C@@H]1CNC(=S)NC[C@@H](NC(=O)[C@@H](N)Cc2ccc(O)cc2)C(=O)NCC(=O)N[C@@H](Cc2ccccc2)C(=O)N1` (stereo in doubt; 7a) as the compound, how does the fold change (FC) [1] read?
A: 140

Q: And the Ratio Ki (Rattus norvegicus)?
A: 10.5 and 13.5

Q: What about the fold change (FC) [2] of the same compound?
A: 4.81
